Measurements published in patent US9040727B2, “Histone deacetylase inhibitor of benzamides and use thereof” (Shanghai Institute of Pharmaceutical Industry, priority 2011, dated 2015).

The chains behind the UniProt entries cited, without tags or fusion partners.
UniProt Q13547, whole entry: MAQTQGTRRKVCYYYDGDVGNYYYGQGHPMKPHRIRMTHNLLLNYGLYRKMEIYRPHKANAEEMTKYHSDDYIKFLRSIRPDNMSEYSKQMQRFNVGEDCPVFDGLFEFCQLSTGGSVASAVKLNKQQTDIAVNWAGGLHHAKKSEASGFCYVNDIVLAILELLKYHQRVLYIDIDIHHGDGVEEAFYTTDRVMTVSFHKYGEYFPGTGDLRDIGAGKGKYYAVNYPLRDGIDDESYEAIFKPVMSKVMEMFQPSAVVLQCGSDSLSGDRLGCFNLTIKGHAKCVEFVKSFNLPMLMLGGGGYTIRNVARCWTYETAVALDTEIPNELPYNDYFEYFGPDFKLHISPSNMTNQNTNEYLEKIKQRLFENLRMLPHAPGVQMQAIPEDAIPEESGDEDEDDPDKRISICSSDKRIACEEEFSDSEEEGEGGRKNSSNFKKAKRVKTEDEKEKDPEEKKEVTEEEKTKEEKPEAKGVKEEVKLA

Tests used:
HDAC1 = HDAC1 (Homo sapiens (Human), UniProt Q13547); assay: In vitro inhibitory activity towards HDAC1 (HDAC Inhibitor Drug Screening Kit); type: biochemical
Description: (1) The compounds to be tested were each individually prepared as 10 μM and 1 μM solutions and their inhibitory activities towards HDAC1 at these concentrations were tested.
Each dilution sample was placed in two wells and the enzyme inhibition IC50 of the compound was tested.

HDACs = assay: In vitro inhibition of HDACs (HDAC Inhibitor Drug Screening Kit); type: biochemical
Description: The test was conducted according to the instructions in the HDAC Inhibitor Drug Screening Kit (Biovision/Catalog #50051, BPS).
(2) The compound to be tested was diluted using DMSO with a four times dilution method to give 10 diluted concentrations, i.e. 500 μM, 125 μM, 31.25 μM, 7.81 μM, 1.95 μM, 0.49 μM, 0.12 μM, 0.03 μM, 7.6 E-03 μM and 1.9 E-03 μM in sequence. Each dilution sample was placed in two wells and the enzyme inhibition IC50 of the compound was tested.

[1] = tested on: A549 human lung cancer cells; assay: In vitro anti-proliferative effect, CCK-8 method; type: cell-based
Description: (§1) The inhibitory activities of the compounds towards Hut78 T lymphocytic leukemia cells, Jurkat E6-1 human T-cell lymphoma, A549 human lung cancer cells, K562 human chronic myelogenous leukemia cells, Hep3B2.1-7 human liver cancer cells, MDA-MB-435s human breast cancer cells, Colo320 human rectal cancer cell line, and PC-3 human prostate cancer were determined. The inhibition percentages as represented by IC50 values were obtained through CCK-8 method.

[2] = tested on: K562 human chronic myelogenous leukemia cells; assay: In vitro anti-proliferative effect, CCK-8 method; type: cell-based
Description: as §1

SMILES	IC50 (HDAC1) [nM]	IC50 (HDACs) [nM]	IC50 [1] [nM]	% Inhibition of HDAC1 (HDAC1; compound at 1 μM) [%]	IC50 [2] [nM]
Nc1ccccc1NC(=O)c1ccc(CNC(=O)c2cccc3ccccc23)cc1 [Compound V-15]	517	1040	534		
Nc1ccccc1NC(=O)c1ccc(CNC(=O)OCc2cccnc2)cc1 [MS-275, reference compound]				45.73	4660
